This assay deals with collagen antibody and lipopolysaccharide-induced arthritis (CAIA). Description: Collagen antibody-induced mouse arthritis model (Experimental Example 4). Type of assay: in vivo, BALB/c mice. To be noted: Day3; Mean; 20 mg/kg oral twice a day. The method, then: Experimental animals: BALB/c mice, male, 6-8 weeks, 18-20 g; supplier: Beijing Vital River Laboratory Animal Technology Co., Ltd. 1. […] 2. Administration: Table 4. Administration groups and administration schemes [table] The data were analyzed by One-way ANOVA/Dunnett's using Graphpad Prism and by Repeat Measurement ANOVA/Bonferroni using SPSS. P< 0.05 was considered to indicate a significant difference. Arthritis scoring: Starting from the day of modeling, the incidence of arthritis in the limbs of the animals in each group was observed three times a week until the end of the experiment. According to the different degrees of lesions (erythema and swelling), the scoring was carried out according to the standard of 0-4 points. […] Joint swelling: Starting from the day of modeling, the thickness of the left and right foot pads of the animals was measured three times a week using a micrometer (Mitutoyo, 0-25 mm, minimal 0.001 mm) until the end of the experiment.

With `CCO[C@H]1CCN(Cc2c(OC)cc(C)c3[nH]ccc23)[C@H](c2ccc(C(=O)O)cc2)C1` [LNP023, reference compound], the “Thickness of foot pads (mm)” value turned out to be 1.614 mm.
